# Experimental logP (octanol/water) values from OPERA 2.9

Data: OPERA 2.9 data sets, kmansouri/OPERA on GitHub.

The octanol-water partition coefficient is given as log10; larger values mean a more lipophilic compound.
"via" names the databases from which the curators took the value.

compound	logP	via
CC(C)(O)C(=O)c1ccc(OCCO)cc1	0.841	eChemPortal
CCCCCCC1C(=O)CCC1C(=O)OC (centres undefined)	3.2	eChemPortal
CCC(=O)C(C)CO (centres undefined)	1.71	eChemPortal
CC(C)(C)CCCO	2.39	OCHEM
O=P([O-])([O-])OCC(O)CO.[Mg+2] (centres undefined)	-1.7	eChemPortal
O=C1CCC(C2CCC(c3ccc(F)c(F)c3)CC2)CC1 (centres undefined)	5.3	eChemPortal
CCc1cc(C(N)=S)ccn1	0.435	PubChem
CCCCCCOC(=O)C(C)C	4.7	eChemPortal
Nc1nc(=O)c2c([nH]1)NC[C@@H](CNc1ccc(C(=O)N[C@@H](CCC(=O)O)C(=O)O)cc1)N2	-2.7	PubChem
CC(=O)C(C)=CC1C(C)=CCCC1(C)C (centres undefined)	4.625	OCHEM, OFMPub, eChemPortal
O=[N+]([O-])c1ccccc1NCCO	1.5	eChemPortal
COc1ccc(CN)cc1	1.15	eChemPortal
CCCCCCOC(=O)CC(CC(=O)OCCCCCC)(OC(=O)CCC)C(=O)OCCCCCC	4	eChemPortal
CCOCCCNS(=O)(=O)c1ccc(Oc2cc(O)c3c(c2N)C(=O)c2ccccc2C3=O)cc1	1.88	eChemPortal
Cc1nn(-c2cccc(Cl)c2)c(=O)[c-]1/N=N/c1cc(S(N)(=O)=O)ccc1[O-].Cc1nn(-c2cccc(Cl)c2)c(=O)[c-]1/N=N/c1cc(S(N)(=O)=O)ccc1[O-].[Co+3].[Na+]	3.117	eChemPortal
CCCCN1CCCC1=O	1.265	eChemPortal
Cc1nc2c(O)cccn2c(=O)c1CCO	0.19	eChemPortal
Nc1cccc2c1CN(C1CCC(=O)NC1=O)C2=O (centres undefined)	-0.4	PubChem
Cc1ccccc1CCO	2.1	eChemPortal
Cc1nc2n(c(=O)c1CCN1CCC(c3noc4cc(F)ccc34)CC1)CCCC2O (centres undefined)	1.8	PubChem
O=C1NC(=O)C(c2ccc(O)cc2)N1 (centres undefined)	-0.03	eChemPortal
CC(=O)OCC(CNC(=O)c1c(I)c(N)c(I)c(C(=O)O)c1I)OC(C)=O (centres undefined)	-2.73	eChemPortal
CCn1c(O)c(/N=N/c2ccc(/N=N/c3cc(OCCO)c(/N=N/c4c(S(=O)(=O)[O-])cc5cc(S(=O)(=O)[O-])cc(O)c5c4O)cc3OCCO)c(S(=O)(=O)[O-])c2)c(C)c(C(N)=O)c1=O.[K+].[K+].[Na+]	-3.3	eChemPortal
C=C(C)C(=O)OCCCC(F)(F)C(F)(F)C(F)(F)C(F)(F)C(F)(F)C(F)(F)F	6.18	eChemPortal
C[Si](C)(c1ccccc1)[C@@H]1CC=C(CO)[C@H]1C(=O)O[C@@](O)(c1ccc([N+](=O)[O-])cc1)[C@@H](N)CO	-0.212	eChemPortal
CCC([O-])=C1C(=O)CC(C(=O)[O-])CC1=O.[Ca+2] (centres undefined)	-2.9	OCHEM, PubChem
CC1(C)[C@H]2[C@H](O)OC(=O)[C@H]21	0.899	eChemPortal
CC1(C)NC(=O)N(c2ccc([N+](=O)[O-])c(C(F)(F)F)c2)C1=O	1.8	PubChem
CCOC(=O)CCC1(C)OCC(C)O1 (centres undefined)	1.505	eChemPortal
CC(C)=CCCC(C)CCOC(=O)C(C)C (centres undefined)	5.415	eChemPortal
CC(C)c1ccc(Cl)cc1Br	5.5	eChemPortal
N#Cc1c(F)cccc1F	1.9	eChemPortal
C=C(C)C(=O)NCNC(=O)C(=C)C	1	eChemPortal
COC(=O)c1cc(F)ccc1N	2.4	eChemPortal
OCc1cc(C(O)CNCCCCCCOCCCCc2ccccc2)ccc1O (centres undefined)	4.2	PubChem
CC(C)(C=O)CN1CCOCC1	1.689	eChemPortal
COc1cc(CNC(=O)CCCC/C=C/C(C)C)ccc1O	3.04	PubChem
CN1CCN(C(c2ccccc2)c2ccccc2)CC1	3	PubChem
CC(CC(=O)O)n1nc2ccccc2n1 (centres undefined)	0.34	OCHEM
O=C(OCCc1ccccc1)c1ccccc1O	4.8	eChemPortal
C[n+]1ccccc1.[I-]	-3.3	OCHEM
O=S(=O)([O-])OCCS(=O)(=O)c1ccc(/N=N/c2c(S(=O)(=O)[O-])cc3cc(Nc4nc(Cl)nc(Cl)n4)ccc3c2O)cc1.[Na+].[Na+]	-0.5	eChemPortal
CC(C)(O)CCCC1=CCC(C=O)CC1 (centres undefined)	2.1	OCHEM

The 3 highest values of logP among the entries above:

compound	logP	via
C=C(C)C(=O)OCCCC(F)(F)C(F)(F)C(F)(F)C(F)(F)C(F)(F)C(F)(F)F	6.18	eChemPortal
CC(C)c1ccc(Cl)cc1Br	5.5	eChemPortal
CC(C)=CCCC(C)CCOC(=O)C(C)C (centres undefined)	5.415	eChemPortal

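OPERA's authors assembled the values from existing databases and did not measure them anew. The files give a single number for a compound and property, which may rest on several reports. Conditions of the individual experiments are not part of the data. Where a salt, mixture or single isomer is drawn, the source does not say that exactly this form was tested. Some entries may be limits or estimates that an upstream database listed as plain numbers.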